From ChEMBL document CHEMBL1135721, “Pyridophens: binary pyridostigmine-aprophen prodrugs with differential inhibition of acetylcholinesterase, butyrylcholinesterase, and muscarinic receptors” (2002)

Key:
[1] = molecular target: Muscarinic acetylcholine receptor (UniProt P08172+P08173+P08912+P11229+P20309); test: Inhibition of [3H]NMS (N-[3H]methylscopolamine) binding to Muscarinic acetylcholine receptor (mAChR)
Acetylcholinesterase = Acetylcholinesterase (Bos taurus, UniProt P23795); test: Inhibitory activity against Acetylcholinesterase (AChE)
Butyrylcholinesterase [2] = molecular target: T1, Butyrylcholinesterase (Equus caballus, UniProt Q9N1N9); test: 50 percent inhibitory concentration of Butyrylcholinesterase (BChE); conditions: read-out: I 50
Butyrylcholinesterase [3] = molecular target: T1, Butyrylcholinesterase; test: Inhibitory activity against Butyrylcholinesterase (BChE)

Row | SMILES | Ki [1] | Ki (Acetylcholinesterase) | IC50 (Butyrylcholinesterase [2]) | Ki (Butyrylcholinesterase [3])
1 | CN(C)C(=O)Oc1ccc[n+](C)c1COC(=O)C(C)(c1ccccc1)c1ccccc1.COS(=O)(=O)[O-] | 4.7 µM |  |  | 
2 | CN(C)C(=O)Oc1ccc[n+](C)c1COC(=O)C(C)(c1ccccc1)c1ccccc1 |  | 5.62 µM | 0.17 µM | 3.14 µM
3 | CN(C)C(=O)Oc1cccnc1CO |  | 52.1 µM |  | 
4 | CN(C)C(=O)Oc1cccnc1COC(=O)C(C)(c1ccccc1)c1ccccc1 | 42 µM | 38.8 µM |  | 8.51 µM
5 | CN(C)C(=O)Oc1ccc[n+](C)c1CO.[I-] | > 100 µM |  |  | 
